In this assay the target is Human GLP-1 receptor (Homo sapiens, UniProt P43220). Put plainly: Measurement of GLP-1 receptor agonist activity (cAMP assay). The class given is cell-based. Conditions: hGLP-1R/CHO-K1 cells. In general terms: Changes in cAMP serve as a functional read-out for many G protein-coupled receptors.

The chains behind the UniProt entries cited, without tags or fusion partners. Residues count along the entry.
UniProt P43220, 24-463 limits assumed: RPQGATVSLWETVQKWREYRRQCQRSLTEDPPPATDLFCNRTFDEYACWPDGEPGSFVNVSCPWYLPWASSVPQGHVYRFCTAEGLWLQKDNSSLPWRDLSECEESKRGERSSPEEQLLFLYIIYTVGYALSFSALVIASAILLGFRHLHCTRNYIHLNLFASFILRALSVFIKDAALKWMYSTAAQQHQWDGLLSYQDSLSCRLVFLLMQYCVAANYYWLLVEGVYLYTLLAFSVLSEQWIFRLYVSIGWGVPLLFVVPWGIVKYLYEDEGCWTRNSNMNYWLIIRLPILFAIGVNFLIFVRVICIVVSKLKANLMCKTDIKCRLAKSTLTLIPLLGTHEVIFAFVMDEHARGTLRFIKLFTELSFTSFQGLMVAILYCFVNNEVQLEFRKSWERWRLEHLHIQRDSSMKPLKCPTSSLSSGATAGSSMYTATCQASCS

Broadly, the EC50 is the concentration needed to bring the measured effect to its halfway point. A higher EC50 goes with lower potency in that assay. Under “cAMP increase, 37° C. 1 hour”, `O=C(O)c1cc(C2CC2)c2nc(CN3CCc4cc(C(F)(F)F)c(OCc5ccc(Cl)cc5F)cc4C3)n(C[C@@H]3CCO3)c2c1` returned a concentration giving a half-maximal response (EC50) of 89 nM. Besides, the “Emax(%)” value (cAMP, 100% = human GLP-1 (7-36) at 2 nM, 0% = DMSO only) stood at 119%.
